pIC50: −log10 of the molar value. Calls of active or inactive are those of the source. The rule behind the calls is not given here.

The values below come from ChEMBL document CHEMBL1687942, “Benzimidazole inhibitors induce a DFG-out conformation of never in mitosis gene A-related kinase 2 (Nek2) without binding to the back pocket and reveal a nonlinear structure-activity relationship” (J Med Chem, 2011).

The target of experiment [1] is T1, Serine/threonine-protein kinase Nek2 (Homo sapiens, UniProt P51955).
T1 sequence (P51955 whole entry): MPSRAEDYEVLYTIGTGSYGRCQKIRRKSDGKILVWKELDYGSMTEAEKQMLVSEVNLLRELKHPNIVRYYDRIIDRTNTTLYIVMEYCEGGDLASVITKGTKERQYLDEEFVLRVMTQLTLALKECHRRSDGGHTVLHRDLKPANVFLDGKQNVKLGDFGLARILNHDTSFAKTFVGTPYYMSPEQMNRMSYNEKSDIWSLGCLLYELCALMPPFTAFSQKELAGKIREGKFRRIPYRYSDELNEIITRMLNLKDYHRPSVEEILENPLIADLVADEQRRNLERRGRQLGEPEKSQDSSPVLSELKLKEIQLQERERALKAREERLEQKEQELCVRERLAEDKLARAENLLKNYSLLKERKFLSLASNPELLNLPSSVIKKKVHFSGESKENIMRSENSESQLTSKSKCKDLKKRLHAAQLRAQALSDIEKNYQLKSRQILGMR

The test system of experiment [2] is Tyrosine-protein kinase Lck (Mus musculus). The experiment can be described thus: Inhibition of mouse LCK at 2 uM.

Consider `CC(Oc1cc(-n2cnc3ccc(OC4CCN(C)CC4)cc32)sc1C(N)=O)c1ccccc1C(F)(F)F` (racemic), for which the pIC50 in experiment [1] is 6.80.

Consider `CC(Oc1cc(-n2cnc3cc(OC4CCN(C)CC4)ccc32)ccc1C(N)=O)c1ccccc1C(F)(F)F` (racemic), for which the inhibition result in experiment [2] is “Active”.
